Laboratory results: ChEMBL document CHEMBL4431370, “Novel tricyclic poly (ADP-ribose) polymerase-1/2 inhibitors with potent anticancer chemopotentiating activity: Design, synthesis and biological evaluation” (Bioorg Med Chem, 2016)

Sequences of proteins named here, by UniProt entry; tags and fusion partners are left off.
UniProt P09874, whole entry: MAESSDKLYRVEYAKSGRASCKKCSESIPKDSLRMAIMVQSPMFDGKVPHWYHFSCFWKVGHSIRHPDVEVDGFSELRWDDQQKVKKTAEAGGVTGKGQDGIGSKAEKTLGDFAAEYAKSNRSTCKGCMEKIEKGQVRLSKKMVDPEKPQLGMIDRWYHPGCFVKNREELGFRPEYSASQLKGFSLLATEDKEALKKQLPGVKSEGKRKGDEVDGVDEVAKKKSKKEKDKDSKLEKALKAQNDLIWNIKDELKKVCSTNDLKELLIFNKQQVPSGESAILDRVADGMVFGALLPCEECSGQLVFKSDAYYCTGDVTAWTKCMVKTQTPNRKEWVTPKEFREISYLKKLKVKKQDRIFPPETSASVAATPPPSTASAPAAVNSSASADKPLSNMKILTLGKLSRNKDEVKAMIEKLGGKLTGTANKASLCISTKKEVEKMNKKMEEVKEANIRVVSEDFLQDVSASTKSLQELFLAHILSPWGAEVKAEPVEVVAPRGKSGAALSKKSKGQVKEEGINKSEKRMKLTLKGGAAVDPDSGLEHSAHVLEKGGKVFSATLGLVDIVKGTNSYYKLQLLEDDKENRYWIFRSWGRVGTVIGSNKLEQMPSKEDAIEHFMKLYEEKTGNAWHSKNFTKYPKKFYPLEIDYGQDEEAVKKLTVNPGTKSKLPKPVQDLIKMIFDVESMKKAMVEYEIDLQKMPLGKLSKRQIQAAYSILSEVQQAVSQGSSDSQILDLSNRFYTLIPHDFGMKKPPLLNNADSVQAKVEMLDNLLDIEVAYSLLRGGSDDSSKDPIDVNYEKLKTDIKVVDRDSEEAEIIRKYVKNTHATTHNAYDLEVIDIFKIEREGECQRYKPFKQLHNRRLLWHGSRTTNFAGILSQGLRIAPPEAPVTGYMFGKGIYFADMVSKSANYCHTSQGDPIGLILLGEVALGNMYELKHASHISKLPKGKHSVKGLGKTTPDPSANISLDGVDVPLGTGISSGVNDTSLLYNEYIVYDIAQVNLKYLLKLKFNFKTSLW

Assays:
[1] = target: T1, Poly [ADP-ribose] polymerase 1 (Homo sapiens, UniProt P09874); details: MDA-MB-468
[2] = target: T1, Poly [ADP-ribose] polymerase 1; details: A549
[3] = target: T1, Poly [ADP-ribose] polymerase 1

Row | Compound | PF50 [1] | PF50 [2] | PF50 [3]
1 | CC(C)CN1CCC(c2nc3cncc4c3n2CCNC4=O)CC1 | 2.6 | 6.5 | 2.5
2 | O=C1NCCn2c(-c3ccc(N4CCNCC4)cc3)nc3cncc1c32 | 1 | 1.1 | 1.1
3 | CNCc1ccc(-c2nc3cncc4c3n2CCNC4=O)cc1 | 0.6 | 1.2 | 1.5
4 | CCNCc1ccc(-c2nc3cncc4c3n2CCNC4=O)cc1 | 2 | 3.2 | 2.1
